Earlier results in patent US5919673A, “One-pot enzymatic sulfation process using 3'-phosphoadenosine-5'-phosphosulfate and recycled phosphorylated adenosine intermediates” (The Scripps Research Institute, priority 1995, dated 1999).

Chains of the proteins cited; added tags and fusions are not shown. Lines headed by an entry give the natural chain unless they say otherwise; changes in a name come on top.
UniProt Q12650: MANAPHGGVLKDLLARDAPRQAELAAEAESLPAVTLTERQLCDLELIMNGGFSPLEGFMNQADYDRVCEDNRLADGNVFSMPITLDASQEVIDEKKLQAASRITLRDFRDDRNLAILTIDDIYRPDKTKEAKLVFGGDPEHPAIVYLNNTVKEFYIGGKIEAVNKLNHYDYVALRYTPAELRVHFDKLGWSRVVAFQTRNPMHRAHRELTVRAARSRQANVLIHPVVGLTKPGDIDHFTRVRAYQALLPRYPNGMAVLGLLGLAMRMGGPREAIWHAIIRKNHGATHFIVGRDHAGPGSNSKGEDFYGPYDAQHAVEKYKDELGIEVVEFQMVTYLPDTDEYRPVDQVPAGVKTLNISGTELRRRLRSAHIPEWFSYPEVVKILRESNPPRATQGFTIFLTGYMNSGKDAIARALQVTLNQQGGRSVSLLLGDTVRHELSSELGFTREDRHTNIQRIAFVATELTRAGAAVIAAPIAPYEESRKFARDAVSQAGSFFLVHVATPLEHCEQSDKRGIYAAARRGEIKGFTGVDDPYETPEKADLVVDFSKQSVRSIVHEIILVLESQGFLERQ
UniProt Q12657: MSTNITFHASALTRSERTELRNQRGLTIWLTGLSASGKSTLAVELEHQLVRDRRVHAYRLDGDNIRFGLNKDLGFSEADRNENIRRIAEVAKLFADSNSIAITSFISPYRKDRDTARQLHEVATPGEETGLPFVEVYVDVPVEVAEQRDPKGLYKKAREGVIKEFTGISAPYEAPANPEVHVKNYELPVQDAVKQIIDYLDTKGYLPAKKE

Key:
ATP sulfurylase = ATP sulfurylase (Penicillium chrysogenum, UniProt Q12650); details: read-out: Ki (APS, product inhibition)
APS kinase = APS kinase (Penicillium chrysogenum, UniProt Q12657); details: read-out: Ki value of APS

## Nc1ncnc2c1ncn2[C@@H]1O[C@H](COP(=O)(O)OS(=O)(=O)O)[C@@H](O)[C@H]1O [APS, adenosine-5'-phosphosulfate]
ATP sulfurylase
  Ki: < 0.25 µM
APS kinase
  Ki: 23 µM
